Reference: patent US20030203857A1, “Remedies” (priority 2000, published 2003)

System: mouse
Type: in vivo
Conditions: orally, single dose of 1 g/1 kg

3,5-dicaffeoylquinic acid
Death after single oral administration: no cases of death
